Values quoted from earlier work, collected in patent US20140336503A1, “RA[…] […] RELATED METHODS THEREOF” (The Regents of the University of Michigan, priority 2013, published 2014).

The chains behind the UniProt entries cited, without tags or fusion partners. Residues count along the entry.
UniProt P43235, 115-329 limits assumed: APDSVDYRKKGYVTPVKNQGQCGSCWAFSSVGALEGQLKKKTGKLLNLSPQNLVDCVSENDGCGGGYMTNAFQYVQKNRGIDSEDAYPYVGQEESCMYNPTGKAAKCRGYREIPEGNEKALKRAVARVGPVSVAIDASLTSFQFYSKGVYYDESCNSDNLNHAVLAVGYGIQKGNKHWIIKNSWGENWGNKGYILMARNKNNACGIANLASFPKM

Molecular target: human cathepsin K (Homo sapiens, UniProt P43235)
Settings: in vitro, tested as the radiolabelled form; cited from earlier work

COc1ccc(CCNC(=O)c2cnc(C#N)nc2NCC(C)(C)C)cc1 [[^11C]2, 2-cyano-N-(4-[^11C]methoxyphenethyl)-4-(neopentylamino)pyrimidine-5-carboxamide]
IC50: 3 pM
